Test results as given in patent publication US5804410.

Target: human neutrophile elastase (human) (UniProt P08246)

- Inhibition (%): 100%
Substance: α1-antitrypsin
